Among the data in patent publication US10227345B2, “Compounds and methods for inhibiting fascin” (Cornell University, priority 2014, dated 2019) are inhibition values, retold here.

The experiment deals with T1, human fascin 1 (Homo sapiens, UniProt Q16658).
T1 construct: GST (N, cleaved yes); made in house; host or cells: Escherichia coli BL21/DE3 (pGEX4T-fascin 1 plasmid)
Nature of the experiment: Fascin inhibition (actin bundling) assay, image-based. The conditions noted are these: in the presence of 50 μm of the compound relative to bundle activity when the compound was not present; read-out: Inhibition (percentage reduction of bundle activity). It counts as biochemical. As for the experimental part: Recombinant human fascin 1 was expressed as a GST fusion protein in BL21 Escherichia coli. One liter of 2YT medium with ampicillin was inoculated overnight with 3 mL of BL21/DE3 culture transformed with pGEX4T-fascin 1 plasmid and grown at 37° C. until attenuance at 600 nm (D600) reached about 0.8. The culture was then transferred to 18° C. and induced by the addition of 0.1 mM isopropyl β-d-thiogalactoside (IPTG) for 12 h. Bacteria were harvested by centrifugation at 5,000 r.p.m. for 10 min. The pellets were suspended in 30 mL of PBS supplemented with 0.2 mM PMSF, 1 mM DTT, 1% (v/v) Triton X-100 and 1 mM EDTA. After sonication, the suspension was centrifuged at 15,000 r.p.m. for 30 min to remove the cell debris. The supernatant was then incubated for 2 h with 4 mL of glutathione beads (Sigma) at 4° C. After extensive washing with PBS, the beads were resuspended in 10 mL of thrombin cleavage buffer (20 mM Tris-HCl pH 8.0, 150 mM NaCl, 2 mM CaCl2, 1 mM DTT). Fascin was released from the beads by incubation overnight with 40-100 U of thrombin at 4° C. After centrifugation, 0.2 mM PMSF was added to the supernatant to inactivate the remnant thrombin activity. The fascin protein was further concentrated with a Centricon® (Boca Raton, Fla.) filter to about 50 mg/mL.
Representative compounds described herein were tested for fascin inhibition activity. Purified fascin protein (15 μL of 0.5 μM) in buffer (100 mM KCl, 20 mM Tris/HCl, pH 7.5, 2 mM MgCl2) was added into each well of a clear 384-well flat-bottom plate (Corning) using Thermo Multidrop Combi (Fisher). Compound solutions (5 mM stock, 180 nL) were pin transferred from stock 384-well plates into the 384-well assay plates and incubated for 30 min. Then 15 μL of 0.5 μM polymerized actin (in 100 mM KCl, 20 mM Tris/HCl, pH 7.5, 2 mM MgCl2, 1 mM DTT, 1 mM ATP) (Cytoskeleton Inc.) was added, resulting in 30 μM final concentration for chemical compounds. […] Mixed solution (25 μL) was then transferred to one well in a black 384-well plate coated with poly-D-lysine, and stained actin bundles or F-actin would stick onto the poly-D-lysine plates. After the plates were thoroughly washed with 1×PBS for 3 times, the plate was imaged using an ImageXpress Micro High Content Screening System (Molecular devices). The images were processed and analyzed using MetaMorph software. The raw image data for each well was background-corrected by subtraction of the median intensities across all wells on the plate. The background-corrected data was used to compute the bundle length for each well. The negative control wells were employed for quality control: multiple DMSO-only control wells (16 wells/plate) were present on each assay plate.
On to `O=C(Nc1nn(Cc2ccc(C(F)(F)F)cc2)c2ccccc12)c1cncs1` [Compound 36, N-(1-(4-(trifluoromethyl)benzyl)-1H-indazol-3-yl)thiazole-5-carboxamide], for which the inhibition at 50 µM came out at 100%. For `Cc1occc1C(=O)Nc1nn(Cc2ccc(C(F)(F)F)cc2)c2ccccc12` [Compound 43, 2-methyl-N-(1-(4-(trifluoromethyl)benzyl)-1H-indazol-3-yl)furan-3-carboxamide] the value was 90%; for `O=C(Nc1nn(Cc2ccc(C(F)(F)F)cc2)c2ccccc12)c1cnon1` [Compound 33, N-(1-(4-(trifluoromethyl)benzyl)-1H-indazol-3-yl)-1,2,5-oxadiazole-3-carboxamide], 80%. `Cc1n[nH]cc1C(=O)Nc1nn(Cc2ccc(C(F)(F)F)cc2)c2ccccc12` [Compound 44, 3-methyl-N-(1-(4-(trifluoromethyl)benzyl)-1H-indazol-3-yl)-1H-pyrazole-4-carboxamide]: the inhibition at 50 µM was 95%. As to `Cc1ncsc1C(=O)Nc1nn(Cc2ccc(C(F)(F)F)cc2)c2ccccc12` [Compound 10, 4-methyl-N-(1-(4-(trifluoromethyl)benzyl)-1H-indazol-3-yl)thiazole-5-carboxamide], the inhibition at 50 µM was 90%. For the compound `O=C(Nc1nn(Cc2ccc(C(F)(F)F)cc2)c2cncc(Cl)c12)c1cccnn1` [Compound 139, N-(4-chloro-1-(4-(trifluoromethyl)benzyl)-1H-pyrazolo[3,4-c]pyridin-3-yl)pyridazine-3-carboxamide], the inhibition at 50 µM is 90%. As to `O=C(Nc1nn(Cc2ccc(C(F)(F)F)cc2)c2ccccc12)c1ccccc1` [Compound 4, N-(1-(4-(trifluoromethyl)benzyl)-1H-indazol-3-yl)benzamide], the inhibition at 50 µM was determined as 50%.
